Laboratory results reported in BindingDB's records for doi:10.1016/0014-2999(93)90488-4 (Maryland Psychiatric Research Center, 1993).

Amino acid sequences for entries named in this document (tags omitted).
UniProt P14416, whole entry: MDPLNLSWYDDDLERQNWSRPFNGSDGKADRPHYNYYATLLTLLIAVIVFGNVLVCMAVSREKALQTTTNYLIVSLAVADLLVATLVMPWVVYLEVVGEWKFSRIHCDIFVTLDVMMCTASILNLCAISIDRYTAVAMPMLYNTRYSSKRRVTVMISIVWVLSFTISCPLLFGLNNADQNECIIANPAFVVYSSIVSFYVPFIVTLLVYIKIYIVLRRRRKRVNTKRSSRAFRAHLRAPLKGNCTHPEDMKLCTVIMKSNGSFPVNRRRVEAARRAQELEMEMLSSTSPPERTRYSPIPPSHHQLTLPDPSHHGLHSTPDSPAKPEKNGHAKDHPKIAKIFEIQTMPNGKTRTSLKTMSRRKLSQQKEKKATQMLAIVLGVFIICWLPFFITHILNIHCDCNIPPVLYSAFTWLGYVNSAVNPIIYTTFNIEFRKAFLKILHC

Biological target: D(2) dopamine receptor (Homo sapiens, UniProt P14416)

SMILES	Ki [nM]
CCN1CCC[C@H]1CNC(=O)c1c(O)c(Cl)cc(Cl)c1OC [3,5-Dichloro-N-(1-ethyl-pyrrolidin-2-ylmethyl)-2-hydroxy-6-methoxy-benzamide (raclopride)]	2
CCCN1CCCC(c2cccc(O)c2)C1 (configuration not stated) [CAS_85976-54-1]	346
